Reported logP (octanol/water) values for industrial, environmental and drug-like chemicals

Values as listed in the OPERA 2.9 repository of K. Mansouri.

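The OPERA project collected these measurements from public sources as training and test data for property models. A listed value is a point estimate from one report or more. How each value was measured is not recorded, so precision varies. The measured form (salt, isomer or mixture) is not always the one drawn. Some upstream entries may be estimates or bounds without being marked so.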

The octanol-water partition coefficient is given as log10; larger values mean a more lipophilic compound.
Cells with "–" have no entry in this list.
"via" names the databases from which the curators took the value.

| structure (SMILES) | name | log Kow | via |
|---|---|---|---|
| COc1cc(C#N)ccc1O | 4-Hydroxy-3-methoxybenzonitrile | 0.82 | OCHEM |
| CCCCCCCOC(=O)c1cc(=O)[nH]c(=O)[nH]1 | Heptyl 2,4-dioxo-1H-pyrimidine-6-carboxylate | 2.15 | OCHEM |
| COC(=O)c1ccccc1N=NC(C)Cc1ccc(C(C)(C)C)cc1 (stereo not given) | – | 4.4 | eChemPortal |
| CN(C)S(=O)(=O)Nc1ccccc1 | Sulfamide, N,N-dimethyl-N'-phenyl- | 1.67 | OCHEM |
| COc1ccccc1Oc1c(NS(=O)(=O)c2ccc(C(C)(C)C)cc2)nc(-c2ncccn2)nc1OCCO | Bosentan | 3.7 | PubChem |
| CC(=O)NC(Cc1c[nH]c2ccccc12)C(=O)O (stereo not given) | Acetyltryptophan | -1.7 | eChemPortal |
| C=CC(=O)NC(C)(C)C | tert-Butylacrylamide | 1.45 | eChemPortal |
| CCCCOC(=O)[C@@H](CC)[C@H](CO)Cc1cncn1C | – | 1.73 | OCHEM |
| CC1OCC(c2ccccc2)O1 (stereo not given) | 1,3-Dioxolane, 2-methyl-4-phenyl- | 2.19 | eChemPortal |
| CC(C)=CC=O | 3-Methylbut-2-enal | 0.53 | eChemPortal |
| CCn1c(O)c(/N=N/c2ccc(S(=O)(=O)c3ccc(/N=N/c4c(C)c(CS(=O)(=O)[O-])c(=O)n(CC)c4O)cc3)cc2)c(C)c(CS(=O)(=O)[O-])c1=O.[Na+].[Na+] | – | -3.4 | eChemPortal |
| O=[N+]([O-])c1ccc2c(ccc[n+]2[O-])c1 | 6-Nitro-1-oxo-1lambda~5~-quinoline | 0.39 | OCHEM |
| CCN(CC)CCNC(=O)C1C(C)=NC(/C=C2\C(=O)Nc3ccc(F)cc32)=C1C (stereo partly drawn) | Sunitinib | 3.1 | PubChem |
| C1=CCC(C2OCC3(CO2)COC(C2CC=CCC2)OC3)CC1 (stereo not given) | 3,9-Dicyclohex-3-enyl-2,4,8,10-tetraoxaspiro[5.5]undecane | 5.45 | eChemPortal |
| CN(C)CCCN | 3-(Dimethylamino)propylamine | -0.352 | PubChem, eChemPortal |
| CCOC(C)(C)C | Ethyl t-butyl ether | 1.48 | PubChem, eChemPortal |
| CCCCCCOC | Hexane, 1-methoxy- | 3.6 | eChemPortal |
| O=C(CCc1ccc(O)cc1)Nc1ccccc1C(=O)O | Hydroxyphenyl propamidobenzoic acid | 3.05 | eChemPortal |
| CCCCNc1ccc2c3c(cccc13)C(=O)N(CCCC)C2=O | Solvent Yellow 43 | 4.643 | eChemPortal |
| N[C@@H](Cc1cc(I)c(Oc2ccc(O)c(I)c2)c(I)c1)C(=O)O | 3,5,3'-Triiodothyronine | 0.93 | PubChem |
| COC1(OC)CCCCCCCCCCC1 | 1,1-Dimethoxycyclododecane | 4.65 | eChemPortal |
| CCCC1CC(C)(OC(C)=O)CCO1 (stereo not given) | 2H-Pyran-4-ol, tetrahydro-4-methyl-2-propyl-, 4-acetate | 2.39 | OCHEM, eChemPortal |
| OC1CCc2[nH]c3ccccc3c2C1 (stereo not given) | 2,3,4,9-tetrahydro-1H-carbazol-3-ol | 2.07 | eChemPortal |
| CCN(CC)CCCNC(=O)c1ccc(N)cc1.Cl | 4-Amino-N-[3-(diethylamino)propyl]benzamide hydrochloride | -2.88 | eChemPortal |
| OC1CSC(O)CS1 (stereo not given) | 1,4-Dithiane-2,5-diol | 0.127 | eChemPortal |
| Nc1cccnn1 | pyridazin-3-amine | -0.22 | OCHEM |
| Nc1ccc(/N=N/c2ccc(NS(=O)(=O)c3ccc(/N=N/c4c(S(=O)(=O)[O-])cc5cc(S(=O)(=O)[O-])c(/N=N/c6ccc([N+](=O)[O-])cc6)c(N)c5c4O)cc3)cc2)c(N)c1.[Na+].[Na+] | C.I. Acid Brown 210 | -3.1 | eChemPortal |
| CCOC(=O)CC(CC(=O)OCC)(OC(C)=O)C(=O)OCC | Citric acid, triethyl ester, acetate | 1.34 | eChemPortal |
| Cc1cc(C)cc(OCC2CNC(=O)O2)c1 (stereo not given) | Metaxalone | 2.3 | PubChem |
| O=S(=O)([O-])c1ccccc1/C=C/c1ccc(-c2ccc(/C=C/c3ccccc3S(=O)(=O)[O-])cc2)cc1.[Na+].[Na+] | Disodium 4,4'-bis(2-sulfostyryl)biphenyl | -2.32 | eChemPortal |
| Oc1c(I)cc(I)c2cccnc12 | Iodoquinol | 4 | eChemPortal |
| c1ccc2sc(SN3CCOCC3)nc2c1 | N-Oxydiethylene-2-benzothiazylsulfenamide | 3.49 | OFMPub, eChemPortal |
| CCC(COC(=O)CCS)(COC(=O)CCS)COC(=O)CCS | – | 2.8 | eChemPortal |
| CCN(C(=S)[S-])c1ccccc1.CCN(C(=S)[S-])c1ccccc1.[Zn+2] | Zinc bis[ethyl(phenyl)carbamodithioate] | 3.4 | eChemPortal |
| C=C(C)C(=O)OCCCCCCCC | Octyl methacrylate | 5.24 | eChemPortal |
| CC1CC(C)(C)OC(Cc2ccccc2)O1 (stereo not given) | 2-Benzyl-4,4,6-trimethyl-1,3-dioxane | 3.9 | eChemPortal |
| C=CC(C)(C#CC1(O)C(C)=C2OC(C)OC2CC1(C)C)OC(C)OCC (stereo not given) | – | 3.37 | eChemPortal |
| CC(O)C1C(=O)N2C(C(=O)O)=C(SC3CNC(C(=O)N(C)C)C3)C(C)C12.O.O.O (stereo not given) | Meropenem trihydrate | -0.6 | PubChem |
| CC(C)(C1CCCO1)C1CCCO1 (stereo not given) | 2,2'-isopropylidenebis(tetrahydrofuran) | 2.7 | eChemPortal |
| OC1(c2ccc(-c3ccc(C4(O)c5ccccc5-c5ccccc54)cc3)cc2)c2ccccc2-c2ccccc21 | – | 4.88 | eChemPortal |
| O=[N+]([O-])c1c2ccccc2c2ccc3cccc4ccc1c2c43 | Benzo[a]pyrene, 6-nitro- | 5.44 | PubChem |
| COc1ccc(/N=N/c2c(S(=O)(=O)[O-])cc3cc(Nc4nc(Nc5ccc6c(O)c(/N=N/c7ccc(OC)cc7S(=O)(=O)[O-])c(S(=O)(=O)[O-])cc6c5)nc(N5CCOCC5)n4)ccc3c2O)c(S(=O)(=O)[O-])c1.[Na+].[Na+].[Na+].[Na+] | – | -4.108 | eChemPortal |
| CC/C=C(\C)C(=O)O | 2-Pentenoic acid, 2-methyl-, (2E)- | 1.9 | eChemPortal |
| CC(C)(O)CCC(C)(C)O | 2,5-Dimethylhexane-2,5-diol | 0.21 | eChemPortal |
| COC1CCC2(CC1)NC(=O)NC2=O.[HH].[Na+] (stereo not given) | 8-Methoxy-1,3-diazaspiro(4.5)decane-2,4-dione sodium salt | 0.35 | eChemPortal |
| CCOC(=O)C(C)=O | Propanoic acid, 2-oxo-, ethyl ester | 0.435 | eChemPortal |
| CCOC(=O)C1CCC(C(=O)OCC)CC1 (stereo not given) | Diethyl 1,4-cyclohexanedicarboxylate | 2.825 | eChemPortal |
| CN(C)c1ccc(C2(c3ccc(N(C)C)cc3)OC(=O)c3cc(N(C)C)ccc32)cc1 | Crystal Violet lactone | 5.27 | OCHEM |
| CN[C@@H](C)c1cccc(O)c1 | Phenol, 3-[(1S)-1-(methylamino)ethyl]- | 0.32 | eChemPortal |
| CC(=O)c1ccc(CC(C)C)cc1 | Ethanone, 1-[4-(2-methylpropyl)phenyl]- | 3.4 | eChemPortal |
| O=C(c1ccc(Oc2ccccc2)cc1)c1ccc(C(=O)c2ccc(Oc3ccccc3)cc2)cc1 | Methanone, 1,4-phenylenebis[(4-phenoxyphenyl)- | 3.64 | eChemPortal |

Again, the 4 entries with the lowest log Kow:

structure (SMILES)	name	log Kow	via
COc1ccc(/N=N/c2c(S(=O)(=O)[O-])cc3cc(Nc4nc(Nc5ccc6c(O)c(/N=N/c7ccc(OC)cc7S(=O)(=O)[O-])c(S(=O)(=O)[O-])cc6c5)nc(N5CCOCC5)n4)ccc3c2O)c(S(=O)(=O)[O-])c1.[Na+].[Na+].[Na+].[Na+]	–	-4.108	eChemPortal
CCn1c(O)c(/N=N/c2ccc(S(=O)(=O)c3ccc(/N=N/c4c(C)c(CS(=O)(=O)[O-])c(=O)n(CC)c4O)cc3)cc2)c(C)c(CS(=O)(=O)[O-])c1=O.[Na+].[Na+]	–	-3.4	eChemPortal
Nc1ccc(/N=N/c2ccc(NS(=O)(=O)c3ccc(/N=N/c4c(S(=O)(=O)[O-])cc5cc(S(=O)(=O)[O-])c(/N=N/c6ccc([N+](=O)[O-])cc6)c(N)c5c4O)cc3)cc2)c(N)c1.[Na+].[Na+]	C.I. Acid Brown 210	-3.1	eChemPortal
CCN(CC)CCCNC(=O)c1ccc(N)cc1.Cl	4-Amino-N-[3-(diethylamino)propyl]benzamide hydrochloride	-2.88	eChemPortal